{"source": "patent US8226986B2", "about": "(priority 2006, dated 2012)", "test_system": "aortic occlusion-induced ischemia/reperfusion (I/R) injury", "details": "pig, in vivo"}
{"substance": "sodium sulfide [Na2S]", "values": [{"measurement": "pulmonary toxicity", "result": "some pulmonary toxicity was present"}]}
